PGC1a acetyl inh = inhibitors of PGC1a acetylation signal, primary screen, cell-based, U2OS, AlphaScreen, inhibitor mode. AlphaScreen anti-acetyl-lysine; with virally co-expressed GCN5 acetyltransferase. inhibition, % at 15.6 µM. 350,000 compounds, 0.17% hits. AID 651687, 2012;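 active = every replicate shows inhibition of at least 40%; inconclusive = mean inhibition at least 40% but some replicate below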
E-selectin induc = E-selectin induction in HUVECs, primary screen, imaging, HUVEC, immunofluorescence imaging, single point; normalized: neutral wells 0, TNF-alpha wells 100; activation, % at 7.58 µM; 260,000 compounds, 0.37% hits;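 active = mean E-selectin-positive cell signal at least 10% of the positive control, reached in at least 60% of replicates, without over 20% cell loss; inconclusive = no rule given, readout overlaps actives, possibly toxicity-flagged; inactive = the rest, including those meeting only one limit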
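Assay system: HUVEC primary endothelial cells. Input: 3,000 HUVEC seeded per well. Doses: one compound dose added by pin transfer. Read-out basis: % PE-positive cells. Benchmarks: TNF-alpha high, DMSO low. Detection: immunofluorescence imaging. Buffer or medium: EGM-2, gelatin.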
Yeast UUG start = alters start codon recognition fidelity in yeast | S. cerevisiae UUG-firefly luciferase reporter, luminescence/redox ratio | activity score, % at 18.7 µM | 350,000 compounds, 0.13% hits | AID 602363;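 active = replicate mean at a twofold rise or more, about +100% in these data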;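 note: firefly luciferase made from a UUG start codon reports start codon fidelity; reporter light over untreated wells divided by growth signal over untreated wells; some hits fall short of that in this replicate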
esBAF inh = Bmi1 luciferase reporter increase in mESCs, primary screen, esBAF inhibitor project, mouse ES cells, Bmi1 luciferase knock-in, single point; 24 h; 100% = twice the neutral-well signal; reporter increase, % at 12.5 µM; 350,000 compounds, 2% hits; AID 602393, 2012; in the data active = activation above about 40%; inconclusive = no clear call, values can overlap the other calls;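 also: a rise in the Bmi1 reporter signal indicates esBAF inhibition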
PglD DTNB = C. jejuni PglD acetyltransferase inhibitors, primary screen, biochemical, DTNB colorimetric, single point; purified PglD enzyme, DTNB colorimetric CoA detection; inhibition, % at 12.5 µM; 360,000 compounds, 0.098% hits; in the data active = inhibition above about 16%, passing the limit was not always enough; inconclusive = no clear call, values can overlap the other calls
C2C12 statin = suppressors of statin myotoxicity in C2C12 myotubes, primary screen, cell-based, single point, plate reader; 330,000 compounds, 0.78% hits; C2C12 myotubes + simvastatin, ATP luminescence, 48 h; scaled: DMSO 0, geranylgeraniol control 100; AID 602340, 2012; rescue of ATP level, % at 7.49 µM;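 active = mean ATP rescue above about 67%, or every replicate alone reaching that limit, limit read from the data, passing the limit was not always enough; inconclusive = no clear call, values can overlap the other calls; inactive = mean under the limit and some replicate under it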;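 also: myotubes were challenged with 10 µM simvastatin during compound exposure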
Numbers stand for hits; 0 = inactive; ? = inconclusive; - = not tested or not shown. Most compounds without a hit are left out; they make up all but 2.8% or so of the library.

SMILES	PGC1a acetyl inh	E-selectin induc	Yeast UUG start	esBAF inh	PglD DTNB	C2C12 statin
Cc1cccc(S(=O)(=O)N2C[C@H]3[C@@H](c4ccccc42)[C@@H](CO)N3CC2CCOCC2)c1	0	0	0	0	0	0
O=C(NC1CCCCC1NC(=O)c1ccco1)c1ccco1 (configuration not stated)	-	-	0	0	0	0
O=C(NC1c2ccccc2-c2ccccc21)c1ccco1	0	-	0	0	0	120.1
Cc1ccc(-n2[nH]c(C)c(C=Nc3cc(C)ccn3)c2=O)cc1	0	-	0	0	0	89.0
Cc1ccc(-n2[nH]c(C)c(/C=N/c3ccccn3)c2=O)cc1	0	-	0	0	0	0
Cc1noc(C)c1S(=O)(=O)N(C)C[C@@H]1Oc2ccc(NC(=O)Nc3ccccc3)cc2CC(=O)N([C@H](C)CO)C[C@@H]1C	0	0	-	0	-	0
COc1ccc2c3c([nH]c2c1)[C@H](CO)N(C(C)=O)CC31CCN(S(=O)(=O)c2cccs2)CC1	0	0	-	-	-	-
CCOc1ccccc1C(=O)n1nc(C)cc1C	0	-	0	0	0	114.4
C[C@@H]1CN([C@@H](C)CO)C(=O)c2cccc(NC(=O)Nc3ccccc3)c2O[C@H]1CN(C)Cc1ccc(C(=O)Nc2ccccc2N)cc1	0	0	0	0	0	69.5
C[C@H]1CN([C@@H](C)CO)C(=O)c2cccc(NC(=O)c3ccncc3)c2O[C@@H]1CN(C)Cc1ccc(C(=O)Nc2ccccc2N)cc1	0	57.5	0	0	0	-
C[C@H](CO)N1C[C@H](C)[C@@H](CN(C)Cc2ccc(C(=O)Nc3ccccc3N)cc2)Oc2c(NC(=O)c3ccncc3)cccc2C1=O	0	0	0	0	0	-
CO[C@H]1CN(C)C(=O)c2cc(NC(=O)c3cc(C)on3)ccc2OC[C@@H](C)NC[C@@H]1C	0	0	-	0	0	0
COCC#Cc1ccc([C@@H]2[C@H]3CN(C(=O)c4cccnc4)CC(=O)N3[C@H]2CO)cc1	0	0	-	-	-	-
COc1ccc(NC(=O)CSc2nnc(-c3ccccc3Cl)n2Cc2ccco2)c(OC)c1	0	-	0	0	0	115.0
COc1ccc(NC(=O)CSc2nnc(-c3ccccc3)n2Cc2ccco2)c(OC)c1	0	-	0	0	0	0
O=C(c1cc2c(c(-c3cccc(Br)c3)n1)[C@@H](CCO)NC2)N1CCCCC1	-	131.8	-	-	-	-
O=C(c1cc2c(c(-c3cccc(Br)c3)n1)[C@H](CCO)NC2)N1CCCCC1	-	0	-	-	-	-
Cc1ccc(OCCCSc2ncccn2)cc1C	0	-	0	69.9	0	0
COc1ccc(OCCCSc2ncccn2)cc1	0	-	0	56.8	0	0
c1ccc(Oc2cccc(OCCCCSc3ncccn3)c2)cc1	0	-	0	0	0	0
COc1cccc(OCCSc2nc(N)cc(N)n2)c1	0	-	0	54.5	0	0
COc1ccc(OCCSc2ncccn2)cc1	0	-	0	?	0	0
COc1cccc(OCCCCSc2ncccn2)c1	0	-	0	54.6	0	0
COCC(=O)N1C[C@@H](C)[C@@H](OC)CN(C)C(=O)c2cc(NC(=O)c3ccccc3)ccc2OC[C@@H]1C	0	0	0	0	0	0
O=S(=O)(N[C@H]1CC[C@@H](CCn2cc(-c3ccccc3F)nn2)O[C@@H]1CO)c1ccc(F)cc1	-	0	-	-	-	-
SMILES	PGC1a acetyl inh	E-selectin induc	Yeast UUG start	esBAF inh	PglD DTNB	C2C12 statin
COc1ccc(NC(=O)N2C[C@H]3[C@@H](c4ccccc42)[C@@H](CO)N3C(=O)C2CCCC2)cc1	0	0	0	0	0	0
CC(=O)Nc1ccc(CN2C(=O)C(CCc3ccccc3)ON=C2c2cnccn2)cc1 (configuration not stated)	-	-	0	46.6	0	0
COc1cccc(C(=O)Nc2ccc3c(c2)C(=O)N(C)[C@H]2CC[C@H](CC(=O)NCC(F)(F)F)O[C@H]2CO3)c1	0	0	-	0	0	0
CC(=O)n1cc([C@H]2C=C(C(=O)N3CCCCCCC3)O[C@@H](OCc3ccc(CO)cc3)C2)c2ccccc21	0	-	0	-	0	-
CC(=O)n1cc([C@@H]2C=C(C(=O)N3CCN(Cc4ccccc4)CC3)O[C@H](OCc3ccc(CO)cc3)C2)c2ccccc21	0	0	0	0	0	86.3
CC1(C)CC(=O)C=C(c2ccc(-c3ccccc3)cc2)C1=O	0	0	0	77.8	0	0
COc1ccc(C2=CC(=O)CC(C)(C)C2=O)cc1	-	0	-	-	-	-
CC1(C)CC(=O)C=C(c2ccc(-c3ccccc3)cc2)C1	0	0	0	73.6	0	0
COc1ccc(C2=CC(=O)CC(C)(C)C2)cc1	-	0	0	0	0	0
CC1(C)CC(=O)C=C(c2ccc(-c3ccc(OC(F)(F)F)cc3)cc2)C1=O	0	-	0	56.4	0	0
C[C@@H]1CN([C@H](C)CO)S(=O)(=O)c2ccc(C#C[C@@H](C)O)cc2O[C@H]1CN(C)C(=O)c1ccccc1	0	0	0	0	0	0
CCNC(=O)/C(=C/c1ccc2c(c1)OCO2)NC(=O)c1ccc(Br)cc1	0	-	0	0	0	79.3
CCNC(=O)/C(=C\c1ccc2c(c1)OCO2)NC(=O)c1ccc(Br)cc1	0	-	0	-	0	-
CN1[C@@H]2c3ccc(/C=C/c4ccccc4)c(=O)n3C[C@@H]2[C@@H](CO)[C@@H]1C(=O)NC1CCC1	-	0	0	0	0	0
COc1ccc(CNc2ncccc2[N+](=O)[O-])cc1	0	0	0	54.1	0	0
O=C(c1ccccc1)N1CCN(C(=O)c2ccc(OC(F)(F)F)cc2)CC1	0	-	0	0	0	97.8
CC(=O)N1CCN(C(=O)c2ccc(Oc3ccccc3)cc2)CC1	0	0	0	0	0	0
Cc1c(C(=O)Nc2ccc3c(c2)OCO3)oc2ccccc12	-	-	0	50.1	0	0
CC(=O)Nc1c(C(=O)Nc2ccc3c(c2)OCO3)oc2ccccc12	-	-	0	?	0	0
COCC(=O)Nc1c(C(=O)Nc2ccc3c(c2)OCO3)oc2ccccc12	-	-	0	63.0	0	0
C[C@@H]1CN([C@@H](C)CO)C(=O)c2cc(NC(=O)Nc3ccccc3)ccc2O[C@@H](C)CCCCO[C@H]1CN(C)S(=O)(=O)c1cn(C)cn1	0	0	0	0	0	-
O=[N+]([O-])c1ccccc1-c1ccc(C(=S)N2CCCC2)o1	-	0	0	43.6	0	0
CC1CCCN(C(=O)c2ccc(-c3ccccc3Cl)o2)C1 (configuration not stated)	0	0	0	76.7	0	0
CC(=O)N1CCN(C(=O)c2ccc(-c3ccccc3Cl)o2)CC1	-	0	0	46.9	0	0
CC1CN(C(=O)c2ccc(-c3ccccc3Cl)o2)CC(C)O1 (configuration not stated)	0	0	0	0	0	0
